Laboratory results taken from ChEMBL document CHEMBL1949670, “Probes for narcotic receptor mediated phenomena. 44. Synthesis of an N-substituted 4-hydroxy-5-(3-hydroxyphenyl)morphan with high affinity and selective μ-antagonist activity” (Eur J Med Chem, 2012).

System: Mus musculus
Experiment: Antinociceptive activity in sc dosed mouse
Type: functional

`CN1CC[C@]23c4c5ccc(O)c4O[C@H]2[C@@H](O)C=C[C@H]3[C@H]1C5` [MORPHINE] showed an ED50 of 2.1 mg/kg.
